This is an account of results in PubChem BioAssay AID540277 (National Center for Advancing Translational Sciences (NCATS), 2011).

By UniProt entry, the sequences of proteins in these tests, tags left out.
UniProt Q8NER1, whole entry: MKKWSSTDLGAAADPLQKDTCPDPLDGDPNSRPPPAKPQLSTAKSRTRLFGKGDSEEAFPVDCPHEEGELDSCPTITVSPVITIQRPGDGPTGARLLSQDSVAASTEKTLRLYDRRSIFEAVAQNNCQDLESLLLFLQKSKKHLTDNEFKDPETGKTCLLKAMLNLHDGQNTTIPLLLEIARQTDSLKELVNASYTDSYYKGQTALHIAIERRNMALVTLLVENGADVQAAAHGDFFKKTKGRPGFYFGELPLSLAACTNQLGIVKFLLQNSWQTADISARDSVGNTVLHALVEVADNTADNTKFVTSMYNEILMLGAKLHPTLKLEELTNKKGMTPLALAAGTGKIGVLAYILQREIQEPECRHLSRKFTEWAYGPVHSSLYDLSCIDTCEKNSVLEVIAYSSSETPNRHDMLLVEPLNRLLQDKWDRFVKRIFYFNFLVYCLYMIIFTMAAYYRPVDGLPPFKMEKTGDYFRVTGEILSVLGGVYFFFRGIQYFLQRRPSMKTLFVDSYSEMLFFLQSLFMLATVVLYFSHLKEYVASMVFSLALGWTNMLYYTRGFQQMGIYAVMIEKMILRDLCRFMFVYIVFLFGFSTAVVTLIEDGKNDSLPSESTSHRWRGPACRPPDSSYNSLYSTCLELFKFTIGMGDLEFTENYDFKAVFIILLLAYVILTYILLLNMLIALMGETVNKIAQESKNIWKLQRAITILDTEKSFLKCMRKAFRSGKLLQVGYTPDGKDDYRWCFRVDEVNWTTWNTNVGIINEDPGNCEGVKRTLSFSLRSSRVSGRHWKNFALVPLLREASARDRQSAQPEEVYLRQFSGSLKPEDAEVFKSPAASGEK

Each structure is given as a SMILES string. The list shows a part of the results. Records with an inconclusive call do not appear. Active and inactive are the calls of the source. Cut-off read from the data, not from the text of the source: active = potentiation above about 80%; inconclusive = between about 30% and that limit; inactive = weaker than that.

The target in the test is Transient receptor potential cation channel subfamily V member 1 (Homo sapiens) (UniProt Q8NER1). Put plainly: HTS Assay for Compounds that Act as Potentiators of the Vanilloid Receptor 1. Note: 0% is about no effect. Conditions: TRPV1-expressing cells, Fluo-8 calcium influx, capsaicin EC20 potentiation; at 8.33 µM; active compounds read high. From the text: The transient receptor potential ion channel, family V, number 1, (TRPV1) is one of the most important molecular transducers of painful stimuli and a potential target for analgesic drug development. Although recent clinical trials with orthosteric antagonists have not produced a successful drug because of a hyperthermia side effect and their tendency to block thermal noxious pain, this ion channel is undeniably well placed in the pain pathway, and the idea of blocking pain signals before they enter the CNS is an excellent concept and of proven efficacy when TRPV1 agonists are used. We propose a new approach involving allosteric modulation to impose an activity-dependent constraint within the context of inflammation and tissue damage that would alter the responsiveness of the channel in a way that an orthosteric vanilloid antagonist cannot achieve. We believe that the allosteric modulator approach has not been explored for this target. The main goal of this proposal is to identify additional, new, potent allosteric modulators of TRPV1 that can be used to investigate TRPV1 function. Our recent report provides evidence of proof of concept, but the compounds are just at the edge of utility in terms of potency. […] The question of whether they can be used as analgesic agents is complex, but if suitable compounds are identified then testing for analgesic properties will be conducted. NIH Chemical Genomics Center [NCGC] NIH Molecular Libraries Probe Centers Network [MLPCN] MLPCN Grant: MH089480-1A1 Assay Submitter (PI): Michael Iadarola, National Institute of Dental and Cranofacial Research
Upon TRPV1 activation in TRPV1 cells, the channel opens and extracellular cations flow through the channel into the cytosol. A calcium binding dye (Fluo-8) becomes fluorescent when bound to calcium. This dye is pre-loaded into cells and is used as a marker for calcium influx. The amount of accumulated calcium is precisely quantified using the FDSS kinetic reader and the calcium dye. For the HTS assay, freshly prepared cells are plated at a density of 2000/well in 3 ul medium in 1536-well plates and cultured overnight at 35.5C. Cells will be loaded with 1 ul of the homogeneous calcium dye (ABD Bioquest) at room temperature for 40 to 90 minutes. Plates will be loaded into the FDSS kinetic reader and a 1 sec / cycle for 10 second baseline signal will be measured. Compound library will then be added with a pintool at 23 nl and measured kinetically for 3 minutes. This portion of the read is considered the agonist portion of the screen. Following the 3 minutes of incubation, an on board pipettor will deliver 1 ul of capsaicin for a final concentration equal to the EC20. Signal will be measured kinetically for an additional 2 minutes. This portion of the read is considered the allosteric enhancer portion of the screen. The FDSS reader has a standard filter set capable of measuring calcium bound Fluo-8 (ex=480 and em=520 nm).
In the case of `CCOP(C)(=S)SCC(=O)NC(C)(CC)C(=O)O` (stereo not drawn), the potentiation was inactive: -13%. As for `c1nnnn1CCn1cnnn1`, the figure is inactive: -3.26%. As for `CP(=O)(Nc1ccc(SC(F)(F)F)cc1)Oc1ccc(F)cc1` (stereo not drawn), the figure is inactive: -5.27%. On to `CC(C)C(=O)NC(Sc1ccccc1)C(Cl)(Cl)Cl` (stereo not drawn), for which the potentiation is inactive: 0.884%. With `O=P(Nc1nccs1)(c1ccccc1)c1ccccc1`, the potentiation is inactive: -22.6%. Then `Cc1ccccc1NP(C)(=O)Nc1ccccc1C`, with inactive: -4.8%; and `CP(=O)(Nc1ccc2c(c1)OCCO2)Oc1ccccc1` (stereo not drawn), with inactive: -12.4%; and `C[C@H]1OP(=O)(Oc2ccccc2)[C@H](O)[C@H](O)[C@H]1N=[N+]=[N-]` (stereo partly drawn), with inactive: 16.8%. As for `CN(C)CCOC(=O)C(O)(c1ccccc1)C1CCCCC1` (stereo not drawn), the potentiation is inactive: 5.52%. Take `O=P(Nc1nc2ccccc2s1)(c1ccccc1)c1ccccc1`: the potentiation is inactive: 2.33%. Then `COc1ccc(NP(C)(=O)Oc2ccccc2OC)cc1` (stereo not drawn), with inactive: 4.02%; and `COc1ccc(OP(C)(=O)Nc2cccc(Br)c2)cc1` (stereo not drawn), with inactive: -0.792%; and `O=P(Nc1ccccn1)(c1ccc(Br)cc1)c1ccc(Br)cc1`, with inactive: 12.3%. As for `CN(C)C1(CNC(=O)c2ccc(Cl)c(S(N)(=O)=O)c2)CCCCC1`, the potentiation is inactive: 3.76%.

`C(Cc1nn[nH]n1)Cc1nn[nH]n1`: the potentiation was inactive: -4.34%. For `Nc1ccc([As](=O)(O)c2ccc([N+](=O)[O-])cc2)cc1`, the potentiation is inactive: -7.21%. As for `O=C(OC1CN2CCC1CC2)c1cccc(Cl)c1` (stereo not drawn), the figure is inactive: 8.27%; as for `O=[N+]([O-])c1ccc(O)c(/C=N/Nc2ccc([N+](=O)[O-])cc2[N+](=O)[O-])c1`, inactive: 7.03%; as for `CC(=O)NC(SC(=S)N(C)C)C(Cl)(Cl)Cl` (stereo not drawn), inactive: 8.31%. `O=[N+]([O-])c1ccc(OP2(=O)COCCO2)cc1` (stereo not drawn): the potentiation is inactive: 20.5%. Turning to `O=[N+]([O-])c1ncn(CCn2cnc([N+](=O)[O-])n2)n1`, the potentiation is inactive: -6.57%. As to `Cc1cc(-c2cccc3ccccc23)c(C)cn1.O=[N+]([O-])c1cc([N+](=O)[O-])c(O)c([N+](=O)[O-])c1`, the potentiation was inactive: -8.77%. `O=[As](O)(c1ccccc1)c1ccc(O)cc1`: the potentiation is inactive: -1.86%.
